Binding of CDR-mutated scFvs to a peptide of the spike HR2 region

Reference: Engelhart et al. 2022, doi:10.1038/s41597-022-01779-4. File: FLAb, binding data.

All variants were tested on one target, the spike HR2 peptide PDVDLGDISGINAS (SARS-CoV-2).

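The starting antibody came from a phage panning campaign against this peptide. The library (AAYL49) carries one to three amino acid substitutions per variant, with no insertions or deletions. Affinity was read by AlphaSeq, a pooled yeast mating assay with surface-displayed partners. Mating (16 h, 30 °C) was followed by selection of diploids and sequencing of their barcodes. Read counts were normalised to the haploid input and turned into Kd by a linear fit to BCL2-family pairs of known affinity, for each replicate. Mating was done three times.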

Each scFv is VH, the linker GGGGSGGGGSGGGGS, VL, as in the parent Ab-14, and differs from it in the CDRs of the heavy chain only.
VH: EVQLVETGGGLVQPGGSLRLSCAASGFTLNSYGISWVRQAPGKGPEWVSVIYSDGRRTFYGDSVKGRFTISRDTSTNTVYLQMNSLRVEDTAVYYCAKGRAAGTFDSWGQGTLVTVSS
VL: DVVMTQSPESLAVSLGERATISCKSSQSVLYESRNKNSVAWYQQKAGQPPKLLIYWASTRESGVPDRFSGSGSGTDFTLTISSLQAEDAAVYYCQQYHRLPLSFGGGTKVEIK

Positions count from residue 1 of the parent VH; D62K puts K in place of D.
This list gathers variants with a substitution at T104 (VH, numbered from residue 1).
Values are log10 of the apparent Kd in nM; lower means stronger binding.
The mean shown is taken over the replicates in which the pair was detected.
An entry "nd" has no value in the source: the pair was not observed among the diploids in any replicate. This suggests poor binding but is not conclusive.
Background: pairings of library AAYL49 with three empty control strains gave a value in 15% of cases (median 4.06, 5th percentile 2.83). Values in that range, when seen in few replicates, are hard to tell from nonspecific mating. For each scFv, signals with the empty controls are counted beside the result.

* D62K/T104R/D106T = 2.56 (3 of 3 replicates; controls 0 of 9)
* F27I/I51N/T104N = 5.54 (1 of 3 replicates; controls 3 of 9)
* G103T/T104S/F105K = 2.01 (3 of 3 replicates; controls 0 of 9)
* L29N/S63L/T104M = nd (0 of 3 replicates; controls 0 of 9)
* I34V/R56V/T104I = 4.67 (1 of 3 replicates; controls 4 of 9)
* N30K/T104C/F105T = nd (0 of 3 replicates; controls 0 of 9)
* F27A/T28G/T104W = 3.40 (1 of 3 replicates; controls 0 of 9)
* T104D = nd (0 of 3 replicates; controls 1 of 9)
* V50M/F59S/T104W = nd (0 of 3 replicates; controls 0 of 9)
* S53E/A101D/T104H = nd (0 of 3 replicates; controls 0 of 9)
* T104V/D106E/S107C = 2.83 (1 of 3 replicates; controls 0 of 9)
* S53F/F59R/T104F = nd (0 of 3 replicates; controls 0 of 9)
* I34T/V50F/T104Y = 4.63 (1 of 3 replicates; controls 1 of 9)
* L29I/V50I/T104G = nd (0 of 3 replicates; controls 1 of 9)
* L29Y/R57E/T104M = nd (0 of 3 replicates; controls 0 of 9)
* Y52R/T104I = nd (0 of 3 replicates; controls 0 of 9)
* V50N/Y60K/T104V = 4.26 (1 of 3 replicates; controls 1 of 9)
* R56E/T104L = 0.66 (3 of 3 replicates; controls 1 of 9)
* F27G/G33S/T104L = nd (0 of 3 replicates; controls 0 of 9)
* R57T/G99Y/T104N = 5.36 (1 of 3 replicates; controls 3 of 9)
* I34Y/A102S/T104S = 4.45 (1 of 3 replicates; controls 3 of 9)
* T58L/T104Y/D106L = nd (0 of 3 replicates; controls 0 of 9)
* N30S/G99H/T104N = 2.93 (1 of 3 replicates; controls 1 of 9)
* Y60A/K65C/T104N = nd (0 of 3 replicates; controls 1 of 9)
* V50C/R100I/T104G = nd (0 of 3 replicates; controls 0 of 9)
* T28K/F59Q/T104W = 2.23 (3 of 3 replicates; controls 0 of 9)
* Y60C/D62W/T104C = 3.10 (2 of 3 replicates; controls 2 of 9)
* G26R/G33Y/T104H = nd (0 of 3 replicates; controls 0 of 9)
* R57C/G61A/T104Y = 4.63 (3 of 3 replicates; controls 2 of 9)
* Y32D/F59A/T104L = nd (0 of 3 replicates; controls 3 of 9)
* G55M/T104Y = nd (0 of 3 replicates; controls 0 of 9)
* G99L/G103S/T104K = nd (0 of 3 replicates; controls 1 of 9)
* Y60D/G103A/T104N = nd (0 of 3 replicates; controls 0 of 9)
* F59P/T104N = 4.78 (2 of 3 replicates; controls 1 of 9)
* T28A/R100I/T104R = 1.59 (3 of 3 replicates; controls 2 of 9)
* L29F/Y52G/T104M = nd (0 of 3 replicates; controls 0 of 9)
* T28F/T104A/S107M = nd (0 of 3 replicates; controls 3 of 9)
* G55I/A102K/T104N = 4.79 (1 of 3 replicates; controls 2 of 9)
* F59D/G61S/T104C = 2.25 (3 of 3 replicates; controls 3 of 9)
* V50D/T104K = nd (0 of 3 replicates; controls 0 of 9)
* V50L/Y60G/T104N = nd (0 of 3 replicates; controls 0 of 9)
* G26C/V50L/T104N = 4.15 (1 of 3 replicates; controls 2 of 9)
* F59N/A102D/T104E = 4.66 (1 of 3 replicates; controls 3 of 9)
* T58V/G61Q/T104K = nd (0 of 3 replicates; controls 1 of 9)
* T104E/S107R = nd (0 of 3 replicates; controls 3 of 9)

The closing 3 entries, repeated:

* F59N/A102D/T104E: 4.66 (1 of 3 replicates; controls 3 of 9)
* T58V/G61Q/T104K: nd (0 of 3 replicates; controls 1 of 9)
* T104E/S107R: nd (0 of 3 replicates; controls 3 of 9)

In this assay the parent's reference entry averaged 0.65; its copy inside this library read 4.11 (one replicate of three).